Assay: Anti-inflammatory agent solubility in solvents
Format: physicochemical
Method: An anti-inflammatory rinse solution was prepared by mixing anti-inflammatory agent in a solvent in which they are miscible in a vial under ambient conditions as shown in Table 2.

**Q.** Which “Solvent (anti-inflammatory agent solubility in solvents)” value (solvent in which the agent is miscible, ambient conditions) does the source give for “D-α-Tocopherol polyethylene glycol 1000 succinate” here?
**A.** The value was “Water”.

**Q.** And the solubility in water (water)?
**A.** Its solubility in water is “soluble in water”.

— patent publication US20190298621A1, “METHODS OF TREATMENT OF THE DENTAL PULP AND FILLING ROOT CANALS USING ANTI INFLAMMATORY RINSE SOLUTION AND FILLING COMPOSITION” (DENTSPLY SIRONA Inc., priority 2018, published 2019)
